# Target: T1, bovine serum albumin (BSA) (Bos taurus, UniProt P02769)
# Amino acid sequences for entries named in this document (tags omitted). Residues count along the entry.
# UniProt P02769, 25-607: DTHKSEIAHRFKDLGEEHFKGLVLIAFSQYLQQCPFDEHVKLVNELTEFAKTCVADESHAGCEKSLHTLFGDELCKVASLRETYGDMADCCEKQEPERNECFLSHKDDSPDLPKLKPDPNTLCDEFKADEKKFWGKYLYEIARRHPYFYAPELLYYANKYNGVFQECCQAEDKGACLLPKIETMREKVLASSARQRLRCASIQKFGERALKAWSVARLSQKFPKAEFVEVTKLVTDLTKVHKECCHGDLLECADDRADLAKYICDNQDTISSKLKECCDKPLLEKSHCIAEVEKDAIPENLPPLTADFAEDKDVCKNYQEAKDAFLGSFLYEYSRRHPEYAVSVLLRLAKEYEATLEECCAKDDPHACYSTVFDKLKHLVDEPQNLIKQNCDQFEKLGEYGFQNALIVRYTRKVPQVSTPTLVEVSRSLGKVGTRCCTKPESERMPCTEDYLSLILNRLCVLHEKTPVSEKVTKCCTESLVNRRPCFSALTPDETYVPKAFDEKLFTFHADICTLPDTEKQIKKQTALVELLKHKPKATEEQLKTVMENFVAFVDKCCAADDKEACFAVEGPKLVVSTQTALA
# T1 construct: bovine serum albumin (BSA, fraction V, ≥98%) were obtained from Merck; purchased Merck (Darmstadt, Germany)
# Assay: Fluorescence quenching of BSA by flavonoids (Stern–Volmer, binding equation, van't Hoff)
# Conditions: 25 °C
# Description: Fluorescence quenching spectroscopy was employed to investigate the interaction between bovine serum albumin (BSA) and selected flavonoids, including morin. All measurements were performed using a spectrofluorometer under controlled temperature conditions (25 °C).
# To quantify the quenching effect upon encapsulation, the Stern–Volmer equation was applied (Equation (1)):F0/F = 1 + Ksv [Q](1) where F0 and F are the fluorescence intensities of BSA in the absence and presence of quencher (flavonoid), respectively, Ksv is the Stern–Volmer quenching constant, and [Q] is flavonoid concentration.
# The binding constant (Ka) and the number of binding sites (n) were calculated using the logarithmic form of the binding equation (Equation (2)):log[(F0 − F)/F] = log Ka + n log[Q](2)
# Thermodynamic parameters—Gibbs free energy change (ΔG°) (Equation (3)), enthalpy change (ΔH°), and entropy change (ΔS°)—were determined from the temperature dependence of the binding constant using the van’t Hoff equation (Equation (4)):ΔG° = ΔH° − TΔS°(3) ln Ka = −ΔH°/RT + ΔS°/R(4)
smiles,measurement,value
O=c1c(O)c(-c2ccc(O)c(O)c2)oc2cc(O)cc(O)c12 [quercetin],binding constant (Ka),173000 L/mol

# Reference: paper PMC12291850, “Morin Flavonoid Interaction with Albumin and Its Nanoparticle Conjugation: An Efficient Antioxidant Vehicle for Nutraceuticals” (Antioxidants, 2025)
